Literature values as cited in US20060240098A1, “Formulations for hyperforin-enriched hypericum fractions” (Aphios Corporation, priority 2004, published 2006).

Settings: cited from earlier work

In the case of hyperforin [Hyperforin (Aphios)], the pKa is listed as 4.8.
